scFv variants of Ab-95 (light chain) against a SARS-CoV-2 spike peptide

Source: Engelhart et al. 2022 (doi:10.1038/s41597-022-01779-4), MIT Lincoln Laboratory and A-Alpha Bio; data file from the FLAb repository.

Antigen: PDVDLGDISGINAS, a 14-residue peptide of the SARS-CoV-2 spike HR2 region.

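The starting antibody came from a phage panning campaign against this peptide. Variants in AAYL52 differ from the parent at up to three CDR positions; double and triple changes were sampled at random. Affinity was read by AlphaSeq, a pooled yeast mating assay with surface-displayed partners. Binding brings cells together so that they mate, and sequencing counts the barcode pairs among the diploids. Each replicate has its own calibration line, from reference interactions of the BCL2 family. Each pool was mated in three replicate cultures.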

Parent scFv Ab-95: VH joined to VL by a (GGGGS)3 linker. Changes lie in the light chain CDRs alone.
VH: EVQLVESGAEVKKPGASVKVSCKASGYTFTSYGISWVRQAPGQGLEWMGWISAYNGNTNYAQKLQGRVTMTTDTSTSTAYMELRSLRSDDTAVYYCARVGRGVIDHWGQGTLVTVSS
VL: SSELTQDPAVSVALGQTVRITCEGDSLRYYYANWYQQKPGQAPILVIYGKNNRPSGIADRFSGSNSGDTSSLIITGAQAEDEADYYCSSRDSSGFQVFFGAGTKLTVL

The whole VL of each variant is written out. Scale: log10 of Kd in nM, estimated from mating counts; low values are strong binders. A pair that was not seen in that replicate is written "nd"; this usually means weak binding, but a binder can also be missed. Empty control strains, which show no peptide, gave a signal in 28% of pairings with library AAYL52; the median was 3.91 and 95% of these signals were weaker than 2.90. No background was subtracted. The control count says in how many pairings with the empty strains this scFv gave a signal, with their mean in brackets. Parent in this assay: reference entry 2.31, copy in this library 2.25.

VL	log10 Kd, replicates	empty controls
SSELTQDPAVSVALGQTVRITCEGDGLRYYYANWYQQKPGQAPILVIYGKNVRPSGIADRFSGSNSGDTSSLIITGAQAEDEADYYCSSRDSSGFRVFFGAGTKLTVL	2.62 2.29 2.06	6/9 (4.58)
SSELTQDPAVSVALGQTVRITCEGDSLRYYYANWYQQKPGQAPILVIYKKNNRPSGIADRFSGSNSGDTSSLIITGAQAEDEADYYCSSRDSSGFWVFFGAGTKLTVL	3.53 3.40 nd	4/9 (4.12)
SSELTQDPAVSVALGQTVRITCEGDSLRYYYINWYQQKPGQAPILVIYGKGNRPSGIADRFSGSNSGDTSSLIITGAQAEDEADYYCSSADSSGFQVFFGAGTKLTVL	3.73 4.30 4.16	2/9 (3.99)
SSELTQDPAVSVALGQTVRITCEGDSLRGYYANWYQQKPGQAPILVIYGKNNRPSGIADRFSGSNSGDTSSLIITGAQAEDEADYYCHSRDSSGWQVFFGAGTKLTVL	2.22 1.99 1.52	1/9 (5.21)
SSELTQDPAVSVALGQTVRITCEGDSLRYYYANWYQQKPGQAPILVIYGKNNRPSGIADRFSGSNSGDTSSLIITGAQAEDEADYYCSFRDSSHFCVFFGAGTKLTVL	2.82 2.74 2.27	2/9 (4.48)
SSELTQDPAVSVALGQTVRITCEGDSLRQYYANWYQQKPGQAPILVIYGKNNRPSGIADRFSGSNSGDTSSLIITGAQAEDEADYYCSSRDSPGFQVNFGAGTKLTVL	nd 3.17 nd	1/9 (3.01)
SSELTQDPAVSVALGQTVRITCEGDSLRRYYANWYQQKPGQAPILVIYGKNNIPSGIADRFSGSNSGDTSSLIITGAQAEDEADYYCSSRDSSGFQVHFGAGTKLTVL	3.34 3.20 3.22	2/9 (3.84)
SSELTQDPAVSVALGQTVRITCEGDSLRYYYANWYQQKPGQAPILVIYGKNNRPCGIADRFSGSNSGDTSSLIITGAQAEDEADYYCSSRDSAGFQVAFGAGTKLTVL	3.10 2.93 2.82	2/9 (3.43)
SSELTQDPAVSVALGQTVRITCEGDSLRYYPANWYQQKPGQAPILVIYGKNNRPSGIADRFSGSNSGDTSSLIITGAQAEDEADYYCSSVDSSLFQVFFGAGTKLTVL	nd nd nd	4/9 (3.93)
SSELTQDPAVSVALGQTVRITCEGDSLRYYYANWYQQKPGQAPILVIYGKNNRPSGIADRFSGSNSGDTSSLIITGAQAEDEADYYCSSMLSSGFQVLFGAGTKLTVL	nd 4.33 4.06	4/9 (4.54)
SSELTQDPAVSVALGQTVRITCEGDSLRYYYAEWYQQKPGQAPILVIYGKDVRPSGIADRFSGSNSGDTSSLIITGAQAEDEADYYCSSRDSSGFQVFFGAGTKLTVL	nd nd nd	5/9 (4.17)
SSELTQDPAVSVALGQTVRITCEGDSLRYLYANWYQQKPGQAPILVIYGKNNRPSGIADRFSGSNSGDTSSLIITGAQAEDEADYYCSSRDSSGMCVFFGAGTKLTVL	3.16 3.04 2.29	3/9 (3.17)
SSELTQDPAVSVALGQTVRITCEGDSLRYYYANWYQQKPGQAPILVIYGKNNRPFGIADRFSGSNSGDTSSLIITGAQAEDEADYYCSSAQSSGFQVFFGAGTKLTVL	nd nd nd	3/9 (3.48)
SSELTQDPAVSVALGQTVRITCEGDSLRYYYANWYQQKPGQAPILVIYVKNNRPSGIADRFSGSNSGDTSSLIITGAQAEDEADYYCCSDDSSGFQVFFGAGTKLTVL	4.64 nd 3.48	3/9 (3.48)
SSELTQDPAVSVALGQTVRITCETDSLRYYYAAWYQQKPGQAPILVIYGKLNRPSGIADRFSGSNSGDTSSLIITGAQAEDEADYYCSSRDSSGFQVFFGAGTKLTVL	nd nd nd	1/9 (4.16)
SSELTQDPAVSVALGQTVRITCEGYSLRYYYAYWYQQKPGQAPILVIYGKNNRPSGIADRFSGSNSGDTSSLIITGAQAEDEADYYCSSRDSWGFQVFFGAGTKLTVL	4.58 nd 4.35	6/9 (3.98)
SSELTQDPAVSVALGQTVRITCEGDSLRYYYANWYQQKPGQAPILVIYGKNDRPIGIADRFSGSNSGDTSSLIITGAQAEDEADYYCSSRDSRGFQVFFGAGTKLTVL	3.35 3.74 2.53	2/9 (3.72)